Measured affinities in a library of Ab-14 heavy chain variants

The measurements come from Li et al. 2023 (doi:10.1038/s41467-023-39022-2) through the FLAb antibody collection.

Target: peptide PDVDLGDISGINAS, taken from heptad repeat 2 (HR2) of SARS-CoV-2 spike.

Parent: Ab-14, a human scFv built as VH, the linker GGGGSGGGGSGGGGS, VL. Only the CDRs of the heavy chain vary.
VH: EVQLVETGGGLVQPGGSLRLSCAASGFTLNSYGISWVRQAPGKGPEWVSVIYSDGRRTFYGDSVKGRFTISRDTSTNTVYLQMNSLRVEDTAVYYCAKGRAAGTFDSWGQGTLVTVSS
VL: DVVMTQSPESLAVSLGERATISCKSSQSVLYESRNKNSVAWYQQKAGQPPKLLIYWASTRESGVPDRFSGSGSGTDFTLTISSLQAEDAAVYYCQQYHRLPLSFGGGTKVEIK

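The parent was found by panning a naive human phage display library on the peptide. This is the validation round: designs drawn from the data on random variants, tested in the same kind of assay. Several design methods are mixed in this list. The assay is AlphaSeq: two haploid yeast populations carry antibody and antigen on their surface. Mating (16 h, 30 °C) was followed by selection of diploids and sequencing of their barcodes. A regression on co-assayed BCL2-family reference pairs converts the normalised counts of each replicate to an apparent Kd. Each pool was mated in six replicate cultures.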

Variants are written as CDR1, CDR2 and CDR3 of the heavy chain (limits as in the source). Parent: GFTLNSYGIS, VIYSDGRRTFYGDSVK, GRAAGTFDS.
Affinities are written as log10 Kd with Kd in nM; a lower number is a better binder.
The mean shown is taken over the replicates in which the pair was detected.
Where no diploid with the target was found in that replicate, the entry reads "nd": below detection, most likely a poor binder, though not proof of it.
Entries are sorted by rising average, undetected variants last.
Values of this round are not directly comparable with the first-round values of the same sequences.
The authors' rule: three or more of the six replicates give a measured affinity, fewer mean a poor binder.
A sequence that the file lists under several names has all its replicates listed entry by entry, parted by semicolons.
Nonspecific signal, from three strains lacking the peptide, appeared in 1% of pairings of all heavy chain designs, centred on 2.08 (5% of these signals below 0.84); values are not corrected for it.

| # | CDR-H1 | CDR-H2 | CDR-H3 | replicates, log10 nM | log10 Kd (nM), mean |
|---|---|---|---|---|---|
| 1 | GFTLNSYGIS | VIYSDGRRTFYSDSVK | GSTAGTFDV | -0.12 / -1.03 / -0.87 / -0.90 / -0.78 / -0.56 | -0.71 |
| 2 | GFDLDEYGIS | VIYADGVRTAYADSVK | GSNAGTFDI | -0.49 / -0.58 / -0.53 / -0.81 / -0.75 / -0.61 | -0.63 |
| 3 | GFDLNEYGIS | VIYADGRRTFYKDSVK | GEIAGTFDQ | -0.91 / -0.39 / 0.12 / -0.32 / -1.56 / -0.69 | -0.63 |
| 4 | GFDLNEYGIS | VIYADGKRTAYSDKVK | GNVAGTFDV | -0.27 / -0.41 / -0.56 / -0.66 / -0.59 / -0.35 | -0.47 |
| 5 | GFDLNEYGIS | VIYADGMRTFYDDSVK | GNLAGTFDF | -0.24 / -0.53 / -0.09 / -0.77 / -0.36 / -0.38 | -0.39 |
| 6 | GFDLNEYGIS | VIYADGMRTAYTDSVK | GQNAGTFDM | -0.58 / -0.31 / -0.30 / -0.13 / -0.78 / -0.21 | -0.38 |
| 7 | GFDLNEYGIS | VIYADGRRTFYTDSVK | GEVAGTFDF | 0.03 / -0.17 / -0.03 / -0.23 / -0.23 / -0.05 | -0.11 |
| 8 | GFTLNSYGIS | VIYSDGRRTFYADSVK | GKEAGTFDA | 0.15 / -0.05 / -0.16 / -0.08 / -0.13 / 0.16 | -0.02 |
| 9 | GFELNQYGIS | VIYSDGRRTFYSDSVK | GRAAGTFDS | 0.18 / 0.08 / 0.04 / -0.01 / -0.17 / -0.10 | 0.00 |
| 10 | GFSLNEYGIS | VIYSDGRRTFYVDSVK | GQAAGTFDS | 0.31 / 0.18 / -0.01 / -0.11 / -0.01 / 0.20 | 0.09 |
| 11 | GFDLNEYGIS | VIYADGRRTQYIDSVK | GEVAGTFDI | 0.40 / 0.05 / 0.20 / -0.07 / 0.22 / 0.51 | 0.22 |
| 12 | GFTLNEYGIS | VIYSDGRRTFYSDSVK | GQAAGTFDS | 0.60 / 0.17 / -0.03 / 0.10 / 0.14 / 0.35 | 0.22 |
| 13 | GFTLNEYGIS | VIYSDGRRTFYEDSVK | GRAAGTFDS | 0.49 / -0.49 / -0.80 / -0.60 / 0.75 / -0.38; 1.13 / 1.38 / 0.37 / -0.32 / 0.58 / 1.30 | 0.28 |
| 14 | GFNLNSYGIS | VIYSDGRRTFYGDKVK | GKTAGTFDS | 0.66 / 0.95 / 0.29 / -0.08 / 0.06 / 0.40 | 0.38 |
| 15 | GFTLESYGIS | VIYADGRRTFYGDRVK | GRTAGTFDS | 0.90 / 0.28 / 0.46 / 0.13 / 0.38 / 0.64 | 0.46 |
| 16 | GFDLNSYGIS | VIYSDGRRTFYGDEVK | GREAGTFDS | 0.21 / 0.28 / 0.04 / 1.09 / 1.47 / 0.45 | 0.59 |

Continued, with the values leading:

| # | replicates, log10 nM | log10 Kd (nM), mean | CDR-H1 | CDR-H2 | CDR-H3 |
|---|---|---|---|---|---|
| 17 | 0.89 / 0.43 / 0.46 / 0.82 / 0.63 / 0.68 | 0.65 | GFTLKSYGIS | VIYADGRRTFYGDSVK | GRAAGTFDT |
| 18 | 0.77 / 0.44 / 0.95 / 0.55 / 0.41 / 1.08 | 0.70 | KFSLNSYGIS | VIYSDGKRTFYSDSVK | GRTAGTFDS |
| 19 | 0.73 / 1.49 / 0.78 / 0.81 / 0.82 / 0.65 | 0.88 | GFELNSYGIS | VIYSDGRRTFYADSVK | GRLAGTFDS |
| 20 | 1.45 / 1.12 / 0.67 / 0.99 / 0.57 / 1.25 | 1.01 | GFSLNKYGIS | VIYSDGKRTFYGDSVK | GRQAGTFDS |
| 21 | nd / 1.08 / 1.62 / 0.62 / 1.21 / 1.14 | 1.13 | GFNLNSYGIS | VIYSDGRRTFYVDSVK | GQTAGTFDK |
| 22 | 1.61 / 1.12 / 0.83 / 1.34 / 0.70 / 1.21 | 1.14 | GFDLNSYGIS | VIYSDGRRTFYGDGVK | GRIAGTFDS |
| 23 | nd / nd / nd / 1.17 / nd / 3.07 | 2.12 | GFTLNSYGIS | VIYSDGIRTFYLDSVK | GRAAGTFDS |
| 24 | nd / nd / 2.79 / 1.89 / 2.76 / 1.92 | 2.34 | GFTLNSYGIS | VIYSDGQRTFYIDSVK | GRQAGTFDS |
| 25 | nd / 2.72 / nd / nd / nd / nd | 2.72 | GFTLNEYGIS | VIYSDGRRTFYGDSVK | GRAAGTFIT |
| 26 | nd / nd / nd / nd / nd / nd | nd | GFDLNSYGIS | VICSDGRRTFYGDSVK | GRAAGWFNS |
| 27 | nd / nd / nd / nd / nd / nd | nd | GFGLDEYGIS | VIYADGVRRSYVDNVK | GFDGEKGIV |
| 28 | nd / nd / nd / nd / nd / nd | nd | GFDIDEYGIS | VIYADGQRKAYTDNVK | GNSGGMTVA |
| 29 | nd / nd / nd / nd / nd / nd | nd | GFGLNEYGIS | VIYADGQRKYYADNVK | GHFGEDGVV |
| 30 | nd / nd / nd / nd / nd / nd | nd | GFTLNSYGIS | VIYSDGRRTFYQDSVK | GRLAGTFDW |
| 31 | nd / nd / nd / nd / nd / nd | nd | GFSLNEYGIS | VIYSDGRRTFYHDSVK | GRAAVTFDQ |
| 32 | nd / nd / nd / nd / nd / nd | nd | GFHLNSYGIS | VDYSDGRRTFYGDSVK | GRAAGTFDS |
| 33 | nd / nd / nd / nd / nd / nd | nd | GFDFKEYGIS | VIYADGKRQAYAQSVK | GGKNAFTDV |